Legend:
[1] = system: C[S+](CC[C@H](N)C(=O)O)C[C@H]1O[C@@H](n2cnc3c(N)ncnc32)[C@H](O)[C@@H]1O; experiment: purified protein; conditions: PMT activity, co-substrate putrescine, 20 mM HEPES pH 8.0, 37°C, 2 mM DTT, 1 mM ascorbic acid
[2] = system: NCCCCN; experiment: purified protein; conditions: PMT activity, co-substrate SAM, 20 mM HEPES pH 8.0, 37°C, 2 mM DTT, 1 mM ascorbic acid

Substance	Km [1]	kcat [1]	kcat [2]
DsPMT (putrescine N-methyltransferase) (Datura stramonium)	13 ± 1.97 µM	1.98 s⁻¹	1.98 s⁻¹
DsPMT (putrescine N-methyltransferase) (Datura stramonium; H108L)	99 ± 11.68 µM	0.78 s⁻¹	0.78 s⁻¹
